This note sets out measurements from publication PMC10459686, “Preclinical Evaluation of a New Series of Albumin-Binding ^177Lu-Labeled PSMA-Based Low-Molecular-Weight Radiotherapeutics” (Molecules, 2023).

Read-outs that look alike come from different tables or passages of the source.

The subject of this series is male NSG mice bearing PSMA+ PC3 PIP and PSMA− PC3 flu xenografts.
Setting [1] is: 177Lu-L1 from biodistribution data of ref 27.
Where [2] appears, read: 192 h, unpublished data acquired during the study of ref 27.

For `CC(C)Cc1ccc([C@H](C)C(=O)NCCCC[C@H](NC(=O)CN2CCN(CC(=O)O)CCN(CC(=O)O)CCN(CC(=O)O)CC2)C(=O)N[C@@H](CCCCNC(=O)CCCCCCC(=O)N(CCCC[C@H](NC(=O)N[C@@H](CCC(=O)O)C(=O)O)C(=O)O)Cc2ccc(Br)cc2)C(=O)O)cc1` [Alb-L4], the “Tumor AUC, fold higher” value by setting is: (compared to 177Lu-Alb-L2 and 177Lu-Alb-L3) ~ 4 fold; (than 177Lu-Alb-L6 and 177Lu-L1) ~ 6 fold.

Consider `O=C(O)CCC(NC(=O)NC(CCCCN(Cc1ccc(Br)cc1)C(=O)CCCCNC(=O)CN1CCN(CC(=O)O)CCN(CC(=O)O)CCN(CC(=O)O)CC1)C(=O)O)C(=O)O` (stereo not shown) [177Lu-L1, metal not drawn], for which, under setting [1], the “Tumor-to-blood AUC0-192h ratio” value is reported as ~ 867 and the “Tumor-to-kidney AUC0-192h ratio” value is given as ~ 8. Under “24 h (A)”, this compound gave a Bladder uptake of 0.02±0.02 % ID/g, a Bone uptake of 0.03±0.00 % ID/g, a Fat uptake of 0.03±0.03 % ID/g and a Kidney uptake of 0.32±0.16 % ID/g. Also, for the setting “24 h (A)”, the Lacrimal uptake came to 0.08±0.05 % ID/g, the Liver uptake was 0.02±0.01 % ID/g, the Lung uptake was found to be 0.02±0.02 % ID/g and the “PC3 flu tumor uptake” value is 0.01±0.01 % ID/g. Besides, for the setting “24 h (A)”, the “PSMA+ PC3 PIP tumor uptake” value is given as 12.86 ± 0.98 % ID/g, the Salivary gland uptake was found to be 0.01±0.01 % ID/g, the Small intestine uptake is 0.01±0.00 % ID/g and the Spleen uptake worked out at 0.03±0.02 % ID/g. In addition, the Stomach uptake (24 h (A)) is reported as 0.01±0.00 % ID/g. In addition, for the setting “24 h (A), same experiment as 177Lu-Alb-L2 and 177Lu-Alb-L5”, the Blood uptake amounted to 0.01 ±0.01 % ID/g. Besides, the Tumor-to-kidney ratio (24 h, biodistribution data from ref 27) is greater than 4. Moreover, under setting [2], the Kidney uptake was 0.01 ± 0.00 %ID/g and the “PSMA+ PC3 PIP tumor uptake” value came to 4.21 ± 1.45 %ID/g. For the same compound, the Tumor-to-blood ratio (all time points, biodistribution data from ref 27) is greater than 300.
